Measurements reported in US20030037354A1, “Animal model with disrupted Fgf14 gene” (priority 2001, published 2003).
Entries after “also recorded” stand apart in the source; their conditions may differ.

Key:
Assay type in all cases: in vivo, mouse
[1] = tested on: p44/42 MAPK (ERK); test: ERK activation in response to PTZ (Western blot of brain tissue); settings: 75 mg/kg intraperitoneal, 90 sec after injection
Method: For ERK activation, adult (6-23 wk) Fgf14^N-βGal/N-βGal and wildtype female mice were injected intraperitoneally with 75 mg/kg PTZ or PBS. On each of three days prior to the day of the experiment, each mouse was twice injected intraperitoneally with PBS to habituate the animals to handling and injections. The animals were sacrificed 90 sec after the experimental injection (or at the onset of status epilepticus). The cerebral hemisphere and cerebellum were removed and homogenized in 500 μl of boiling lysis buffer (1% SDS; 20 μl/ml protease inhibitor cocktail solution (Sigma P8340); and 1 mM Sodium ortho-vanadate). Protein levels in supernatants wee determined by the Bradford method using a protein assay kit (Bio-Rad, Hercules, Calif.). Aliquots of each sample containing 20 μg of protein were electrophoresed on precast 12% Tris-HCI polyacrylamide gels (Bio-Rad). Proteins were visualized with a polyclonal rabbit anti-phospho-p44/42 MAPK (ERK) antibody (1:1000; Cell Signaling, Beverly, Md.) or polyclonal anti-p44/42 ERK (1:1000; Cell Signaling). The images were scanned (AGFA DuoScan), and densitometry data was analyzed using Quantity One Software (Bio-Rad).

[2] = tested on: wildtype and FGF14 deficient mice; test: PTZ-induced seizure: latency to onset and time to death; settings: 75 mg/kg and 100 mg/kg intraperitoneal
Method: Pentylenetetrazol (Sigma) was dissolved in saline (10 mg/ml) and injected intraperitoneally at a dose of either 75 or 100 mg/kg. Time to onset of tonic-clonic seizure was recorded. In the first experiment (FIG. 9), the mean age was 82 days and the sex ratio was 50% male/female. In the second experiment, the mean age was 354 days and all animals were female.

[3] = tested on: wildtype and Fgf14^N-βGal/N-βGal mice; test: Locomotor activity response to stimulant drugs and dopamine receptor agonists; settings: 0.5 or 2 mg/kg
Method: Locomotor activity. For the locomotor activity experiments, all mice were acclimated to the activity cages (28 cm long×17 cm wide×12.5 cm high) for one hour on two consecutive days. […] Mice were tested every other day and the order of drug treatment was counterbalanced across days within genotype groups. Locomotor activity was recorded every five minutes by two beams of red light placed at 10 and 19 cm along the length of the activity cage.
Statistical Analyses. The behavioral data were analyzed using analysis of variance (ANOVA) models typically containing one between-subjects variable (Genotype) and one within-subjects variable (e.g., Trials or Test Sessions). Subsequent one-way ANOVAs were used to evaluate main effects. Data from the experiments concerning drug effects on locomotor activity were analyzed by using a […] analysis of variance (ANOVA) with one between-subjects variable (Drug) being added to the above model. […] Alpha was set at p<0.05 for all analyses.

Row | SMILES | ERK activation ([1]; cerebellum) | elevation of relative level of phospho-ERK ([1]; cerebral hemispheres of Fgf14^N-βGal/N-βGal mice) | latency to PTZ induced seizure relative to wildtype [2] | locomotor response (locomotor depression) [3]
1 | C1CCc2nnnn2CC1 [PTZ, pentylenetetrazol] | No change | 2 fold | significantly shorter latency | 
2 | CCCN1CCC[C@@H]2Cc3n[nH]cc3C[C@H]21 [quinpirole] |  |  |  | no significant response; also recorded: failed to cause locomotor depression
